## Membrane permeability of cyclic peptides

Values of Kelly et al. 2021, doi:10.1021/jacs.0c06115, as listed in CycPeptMPDB.

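Lipid, pH, incubation time, direction and concentration are not recorded in the data file. The list need not hold all peptides of the study. Entries at the database's floor value (log10 P of -10) are not listed.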

PAMPA is the parallel artificial membrane permeability assay, which has no cells and reads passive diffusion. MDCK: transport across canine kidney epithelial cells. P is given in units of 10^-6 cm/s (from log10 values with two decimals); larger means faster passage. Cells with "n/a" have no entry in this list.

PAMPA (10^-6 cm/s)	MDCK (10^-6 cm/s)	structure (SMILES)
0.93	n/a	CC(=O)N1CCC[C@H]1C(=O)N[C@@H]1C(=O)N(C)[C@H](CC(C)C)C(=O)N[C@@H](CC(C)C)C(=O)N[C@H](CC(C)C)C(=O)N[C@H](CC(C)C)C(=O)N(C)[C@H](C)C(=O)N[C@@H](CC(C)C)C(=O)N2CCC[C@@H]2C(=O)O[C@@H]1C
1.1	n/a	CC(=O)N1CCC[C@@H]1C(=O)N(C)[C@@H](CC(C)C)C(=O)N[C@@H]1C(=O)N[C@H](CC(C)C)C(=O)N[C@H](CC(C)C)C(=O)N(C)[C@@H](CC(C)C)C(=O)N(C)[C@@H](C)C(=O)N[C@H](CC(C)C)C(=O)N2CCC[C@H]2C(=O)O[C@@H]1C
9.8	7.6	CC(=O)N1CCC[C@@H]1C(=O)N(C)[C@H](CC(C)C)C(=O)N[C@@H]1C(=O)N(C)[C@H](CC(C)C)C(=O)N(C)[C@@H](CC(C)C)C(=O)N(C)[C@@H](CC(C)C)C(=O)N[C@@H](C)C(=O)N[C@H](CC(C)C)C(=O)N2CCC[C@H]2C(=O)O[C@@H]1C
6.9	n/a	CC(=O)N1CCC[C@@H]1C(=O)N(C)[C@@H](CC(C)C)C(=O)N[C@@H]1C(=O)N[C@@H](CC(C)C)C(=O)N(C)[C@@H](CC(C)C)C(=O)N[C@@H](CC(C)C)C(=O)N(C)[C@H](C)C(=O)N[C@H](CC(C)C)C(=O)N2CCC[C@@H]2C(=O)O[C@@H]1C
2.7	n/a	CC(=O)N1CCC[C@H]1C(=O)N(C)[C@H](CC(C)C)C(=O)N[C@@H]1C(=O)N[C@H](CC(C)C)C(=O)N(C)[C@@H](CC(C)C)C(=O)N[C@@H](CC(C)C)C(=O)N[C@@H](C)C(=O)N[C@@H](CC(C)C)C(=O)N2CCC[C@@H]2C(=O)O[C@@H]1C
0.12	n/a	CC(=O)N1CCC[C@@H]1C(=O)N(C)[C@@H](CC(C)C)C(=O)N[C@@H]1C(=O)N(C)[C@@H](CC(C)C)C(=O)N[C@@H](CC(C)C)C(=O)N(C)[C@@H](CC(C)C)C(=O)N(C)[C@@H](C)C(=O)N[C@H](CC(C)C)C(=O)N2CCC[C@H]2C(=O)O[C@@H]1C
0.71	n/a	CC(=O)N1CCC[C@H]1C(=O)N(C)[C@@H](CC(C)C)C(=O)N[C@@H]1C(=O)N(C)[C@@H](CC(C)C)C(=O)N(C)[C@@H](CC(C)C)C(=O)N[C@@H](CC(C)C)C(=O)N(C)[C@@H](C)C(=O)N[C@@H](CC(C)C)C(=O)N2CCC[C@H]2C(=O)O[C@@H]1C
0.91	n/a	CC(=O)N[C@@H]1C(=O)N2CCC[C@H]2C(=O)N(C)[C@H](CC(C)C)C(=O)N[C@H](CC(C)C)C(=O)N[C@@H](CC(C)C)C(=O)N(C)[C@H](CC(C)C)C(=O)N(C)[C@@H](C)C(=O)N[C@@H](CC(C)C)C(=O)N2CCC[C@@H]2C(=O)O[C@@H]1C
0.63	n/a	CC(=O)N1CCC[C@@H]1C(=O)N(C)[C@H](CC(C)C)C(=O)N[C@@H]1C(=O)N(C)[C@H](CC(C)C)C(=O)N[C@H](CC(C)C)C(=O)N[C@H](CC(C)C)C(=O)N(C)[C@H](C)C(=O)N[C@@H](CC(C)C)C(=O)N2CCC[C@H]2C(=O)O[C@@H]1C
4.5	n/a	CC(=O)N1CCC[C@@H]1C(=O)N(C)[C@@H](CC(C)C)C(=O)N[C@@H]1C(=O)N[C@@H](CC(C)C)C(=O)N(C)[C@@H](CC(C)C)C(=O)N(C)[C@@H](CC(C)C)C(=O)N(C)[C@@H](C)C(=O)N[C@@H](CC(C)C)C(=O)N2CCC[C@H]2C(=O)O[C@@H]1C
3.3	n/a	CC(=O)N1CCC[C@H]1C(=O)N(C)[C@@H](CC(C)C)C(=O)N[C@@H]1C(=O)N[C@H](CC(C)C)C(=O)N[C@@H](CC(C)C)C(=O)N(C)[C@H](CC(C)C)C(=O)N(C)[C@H](C)C(=O)N[C@@H](CC(C)C)C(=O)N2CCC[C@H]2C(=O)O[C@@H]1C
1	n/a	CC(=O)N1CCC[C@H]1C(=O)N[C@@H]1C(=O)N(C)[C@H](CC(C)C)C(=O)N[C@H](CC(C)C)C(=O)N[C@@H](CC(C)C)C(=O)N(C)[C@@H](CC(C)C)C(=O)N[C@@H](C)C(=O)N[C@@H](CC(C)C)C(=O)N2CCC[C@@H]2C(=O)O[C@@H]1C
1.7	n/a	CC(=O)N1CCC[C@@H]1C(=O)N(C)[C@@H](CC(C)C)C(=O)N[C@@H]1C(=O)N[C@H](CC(C)C)C(=O)N[C@@H](CC(C)C)C(=O)N(C)[C@@H](CC(C)C)C(=O)N(C)[C@H](C)C(=O)N[C@@H](CC(C)C)C(=O)N2CCC[C@H]2C(=O)O[C@@H]1C
6.2	n/a	CC(=O)N1CCC[C@@H]1C(=O)N(C)[C@@H](CC(C)C)C(=O)N[C@@H]1C(=O)N(C)[C@@H](CC(C)C)C(=O)N(C)[C@@H](CC(C)C)C(=O)N[C@@H](CC(C)C)C(=O)N(C)[C@@H](C)C(=O)N[C@H](CC(C)C)C(=O)N2CCC[C@@H]2C(=O)O[C@@H]1C
4.8	n/a	CC(=O)N1CCC[C@H]1C(=O)N(C)[C@@H](CC(C)C)C(=O)N[C@@H]1C(=O)N(C)[C@H](CC(C)C)C(=O)N(C)[C@@H](CC(C)C)C(=O)N(C)[C@@H](CC(C)C)C(=O)N(C)[C@H](C)C(=O)N[C@@H](CC(C)C)C(=O)N2CCC[C@H]2C(=O)O[C@@H]1C
0.34	n/a	CC(=O)N1CCC[C@@H]1C(=O)N(C)[C@@H](CC(C)C)C(=O)N[C@@H]1C(=O)N(C)[C@H](CC(C)C)C(=O)N[C@H](CC(C)C)C(=O)N[C@H](CC(C)C)C(=O)N(C)[C@H](C)C(=O)N[C@H](CC(C)C)C(=O)N2CCC[C@@H]2C(=O)O[C@@H]1C
0.34	n/a	CC(=O)N1CCC[C@H]1C(=O)N[C@@H]1C(=O)N[C@H](CC(C)C)C(=O)N[C@@H](CC(C)C)C(=O)N[C@@H](CC(C)C)C(=O)N(C)[C@@H](CC(C)C)C(=O)N[C@H](C)C(=O)N[C@@H](CC(C)C)C(=O)N2CCC[C@@H]2C(=O)O[C@@H]1C
2.4	n/a	CC(=O)N1CCC[C@H]1C(=O)N[C@@H]1C(=O)N[C@H](CC(C)C)C(=O)N[C@H](CC(C)C)C(=O)N(C)[C@@H](CC(C)C)C(=O)N(C)[C@@H](CC(C)C)C(=O)N(C)[C@@H](C)C(=O)N[C@@H](CC(C)C)C(=O)N2CCC[C@@H]2C(=O)O[C@@H]1C
0.069	n/a	CC(=O)N1CCC[C@@H]1C(=O)N(C)[C@@H](CC(C)C)C(=O)N[C@@H]1C(=O)N[C@H](CC(C)C)C(=O)N[C@H](CC(C)C)C(=O)N[C@H](CC(C)C)C(=O)N[C@H](C)C(=O)N[C@H](CC(C)C)C(=O)N2CCC[C@@H]2C(=O)O[C@@H]1C
1.1	n/a	CC(=O)N1CCC[C@H]1C(=O)N[C@@H]1C(=O)N[C@H](CC(C)C)C(=O)N[C@@H](CC(C)C)C(=O)N[C@H](CC(C)C)C(=O)N(C)[C@@H](CC(C)C)C(=O)N(C)[C@@H](C)C(=O)N[C@@H](CC(C)C)C(=O)N2CCC[C@@H]2C(=O)O[C@@H]1C
0.44	n/a	CC(=O)N1CCC[C@@H]1C(=O)N(C)[C@H](CC(C)C)C(=O)N[C@@H]1C(=O)N[C@@H](CC(C)C)C(=O)N(C)[C@@H](CC(C)C)C(=O)N(C)[C@@H](CC(C)C)C(=O)N(C)[C@H](C)C(=O)N[C@@H](CC(C)C)C(=O)N2CCC[C@H]2C(=O)O[C@@H]1C